In ChEMBL document CHEMBL3217567, “Differential activation of soluble guanylate cyclase by a series of aryl disulfanyl dinitrate esters” (Medchemcomm, 2014):

Key:
[1] = Activation of Sprague-Dawley rat soluble guanylate cyclase after 10 mins in presence of cysteine
[2] = Activation of Sprague-Dawley rat soluble guanylate cyclase after 10 mins

In the case of `O=[N+]([O-])OCC(CS)O[N+](=O)[O-]` (configuration not stated), the EC50 [1] is reported as 71 µM and the EC50 [2] is reported as 43 µM.
